How the values were obtained:
[1] = target: T1, Acetylcholinesterase (Rattus norvegicus) (UniProt P37136); test: First-order rate constant for acetylcholinesterase was determined in vitro in rat brain
T1 sequence (whole entry): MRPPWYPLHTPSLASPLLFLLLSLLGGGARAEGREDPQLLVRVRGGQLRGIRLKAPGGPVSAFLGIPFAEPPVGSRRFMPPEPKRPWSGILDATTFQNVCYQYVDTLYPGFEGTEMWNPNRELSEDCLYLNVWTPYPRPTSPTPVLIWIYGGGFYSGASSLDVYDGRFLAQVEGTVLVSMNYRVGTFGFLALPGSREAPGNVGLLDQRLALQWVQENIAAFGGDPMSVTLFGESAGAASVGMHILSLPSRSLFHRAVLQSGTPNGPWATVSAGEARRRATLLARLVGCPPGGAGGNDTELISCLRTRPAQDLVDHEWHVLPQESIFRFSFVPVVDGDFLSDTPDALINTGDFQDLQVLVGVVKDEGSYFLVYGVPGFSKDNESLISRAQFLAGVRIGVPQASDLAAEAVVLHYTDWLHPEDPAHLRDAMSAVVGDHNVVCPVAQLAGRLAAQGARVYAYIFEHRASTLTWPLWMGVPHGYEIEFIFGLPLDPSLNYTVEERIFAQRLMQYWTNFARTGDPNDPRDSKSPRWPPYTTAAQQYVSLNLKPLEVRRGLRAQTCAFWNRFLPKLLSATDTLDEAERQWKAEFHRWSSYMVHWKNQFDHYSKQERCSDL

[2] = target: T1, Acetylcholinesterase (Rattus norvegicus); test: Bimolecular constants of reactivation was determined by its ability to reactivate tabun-inhibited AchE.
[3] = target: T1, Acetylcholinesterase (Rattus norvegicus); test: In vitro dissociation constant of rat brain Acetylcholinesterase (AChE) inhibitor reactivator complex was determined
[4] = target: T1, Acetylcholinesterase (Rattus norvegicus); test: In vitro dissociation constant of rat brain Acetylcholinesterase (AChE)-reactivator complex was determined

**Q.** For `NC(=O)c1cc[n+](COC[n+]2ccccc2/C=N/O)cc1`, which kR [1] is on record?
**A.** 0.007 min

**Q.** What about the kr [2] of the same molecule?
**A.** 1110 min1 M1

**Q.** And the KR [3]?
**A.** 6.3 µM

**Q.** Which results are given for `NC(=O)c1cc[n+](CCCC[n+]2ccc(/C=N/O)cc2)cc1`?
**A.** kR [1]: 0.0324 min; kr [2]: 348 min1 M1; K diss [4]: 228 µM; KR [3]: 93 µM

**Q.** For `C[n+]1ccccc1C=NO`, which K diss [4] is on record?
**A.** 210 µM

— ChEMBL document CHEMBL1136295, “Synthesis of a new reactivator of tabun-inhibited acetylcholinesterase” (2003)
